Measurements: the Human Domainome abundance scans (Beltran et al. 2025)

B1: Tyrosine-protein kinase ABL1, residues 64 to 120; numbered along this chain, P00519 (parent)
chain: NLFVALYDFVASGDNTLSITKGEKLRVLGYNHNGEWCEAQTKNGQGWVPSNYITPVN

Variants of: B1
Assay: abundance fitness (aPCA) (normalised: wild type 0, dead -1); higher = more abundant; growth selection in yeast, the domain comes from the species named
Conditions: Homo sapiens

Abundance fitness of substitutions, site by site:
R26: T 0.274 | Q -0.394 | F -0.399 | I -0.131 | G -0.133 | K 0.311 | N 0.658 | L -0.07 | S 0.034 | E 0.087 | W -0.094 | D 0.088 | H -0.015 | P -0.892 | V -0.1 | C -0.202
L25: Q -0.989 | D -0.774 | R -0.879 | W -1.11 | V 0.013 | H -0.874 | A -0.345 | N -0.877 | M -0.077 | C -0.038 | K -0.701 | Y -0.065 | G -0.108 | T -0.391 | E -0.998 | I -0.132
L17: C -0.059 | A -0.089 | M 0.125 | H -0.233 | Q -0.318 | V -0.165 | E -0.822 | T -0.155 | D -0.765 | I -0.389 | K -0.455 | Y 0.148 | W -0.051 | S -0.827 | N -0.308 | R -0.369 | P -0.4 | F -0.411
H32: F -0.137 | Q 0.44 | T 0.053 | V -0.114 | S -0.03 | K 0.206 | I -0.033 | P 0.07 | E 0.137 | D 0.112 | L -0.05 | N -0.306 | C 0.407 | R 0.106 | Y 0.041 | W -0.057
E23: Q -0.11 | H -0.618 | C -0.24 | L -0.727 | N -0.569 | V -0.477 | D 0.062 | W -0.877 | K -0.607 | A -0.397 | P -1.13 | M -0.179 | T -0.404
G29: R -0.103 | E -0.168 | K 0.042 | T -0.058 | D 0.062 | P -0.883 | V -0.214 | N -0.111 | L -0.146 | S -0.059 | M -0.034 | C -0.237 | F -0.443
K24: S -0.086 | Y -0.262 | C -0.562 | R -0.006 | L -0.519 | N -0.707 | A -0.504 | G -0.159 | T -0.291 | P -0.493 | I -0.241 | F -0.446 | Q -0.559 | H -0.198 | D -0.245 | W -0.326
S18: F 0.038 | V -0.254 | H -0.024 | G -0.067 | N -0.71 | K -0.307 | P -0.054 | C 0.027 | M -0.011 | Q 0.129 | L -0.15 | E -0.267 | I -0.012 | D -0.025 | W -0.743 | R 0.204
T16: Q 0.602 | V 0.433 | P -0.174 | W -0.215 | R -0.234 | I -0.35
Y30: L -0.149 | H -0.348 | A -0.165 | R 0.065 | W -0.117 | P -0.118 | N -0.177 | F -0.075 | D -0.201 | C -0.219 | E 0.169 | K -0.179 | G -0.022 | S 0.072 | M -0.021 | T -0.052 | V -0.068 | Q 0.058
N33: A 0.009 | L -0.234 | H 0.062 | C -0.42 | E -0.003 | I -0.364 | G 0.065 | F -0.044 | M -0.21 | D -0.068
G13: Y -0.201 | A 0.002 | C -0.113 | E 0.001 | L -0.123 | W -0.35 | R -0.042 | D 0.141 | Q -0.017 | V -0.115 | N 0.11 | P -0.366 | K 0.169 | M -0.145 | F -0.136 | I 0.176
V27: L -0.087 | W -0.313 | T -0.322 | A -0.148 | Y -0.914 | M 0.023 | I -0.055 | P -0.2 | K -0.647 | H -0.435 | N -0.334 | E -0.996 | C -0.175 | Q -0.706 | G -0.389 | S -0.21
N31: A 0.12 | E 0.012 | H -0.023 | C 0.214 | D 0.115 | T 0.064 | S 0.031 | G 0.082 | P -0.27 | V -0.188 | I -0.102 | F -0.447 | Q -0.119 | Y -0.052 | L -0.162 | M -0.512 | K 0.26 | R 0.064
D14: L -0.362 | C 0.054 | K -0.195 | Y -0.639 | T 0.008 | V -0.058 | R 0.067 | M -0.202 | H -0.237 | P -0.13 | N 0.013 | E -0.197 | Q -0.049 | F -0.312 | S -0.059 | W -0.28 | G -0.139
L28: Q -0.188 | A -0.141 | H -0.625 | K -0.264 | T -0.163 | M 0.166 | C -0.033 | V -0.088 | P -0.708 | N -0.07 | Y -0.069 | F -0.441 | W -0.307 | E -0.177 | G -0.323 | S -0.115 | D -0.198 | R 0.022
I19: K -0.643 | H -0.939 | A -0.507 | P -0.982 | N -1.01 | Q -0.941 | Y -1.05 | S -0.941 | F -0.152 | R -1.01 | G -0.696 | M -0.118 | L -0.013 | C -0.149 | T -0.318 | V -0.187 | D -0.789 | W -1.08
T20: D -0.341 | S -0.104 | Q 0.158 | P -0.82 | W -0.291 | R -0.145 | H -0.28 | N -0.085 | I 0.322 | L 0.034 | A -0.063 | F -0.351 | M -0.233 | C -0.157 | V -0.041 | K -0.358 | G -0.221
K21: W -0.682 | T -0.289 | C -0.302 | A 0.01 | I -0.951 | Y -0.171 | Q 0.058 | L 0.085 | E -0.106 | V -0.234 | N -0.003 | G -0.353 | H 0.75 | M -0.19 | S -0.299 | P -0.837 | R -0.159
G22: A -0.315 | N -0.385 | K -0.404 | T -1.13 | P -1.1 | C -0.291 | Q -0.626 | D 0.15 | Y -0.378 | V -0.973 | H -0.473 | L -0.753 | R -0.449 | W -0.669 | M 0.121 | S -0.243
S12: Y -0.55 | W -0.336 | T -0.352 | V -0.194
N15: G 0.078 | P -0.34 | S -0.001 | T -0.047 | I 0.287 | C 0.045 | A 0.097 | E -0.008 | L -0.16 | Y -0.352 | D -0.013 | K 0.207 | Q 0.031 | W -0.021 | H -0.087 | V -0.142 | F -0.216 | R -0.007 | M 0.095
